Assay results as given in patent publication US20260167693A1 (ANGELES THERAPEUTICS, published 2026).

T1: CD19-ECD-GGSG-NLuc-AcV5 (human)
T1 construct: also called CD19-GGSG-NLuc-AcV5; Flag-CD19-GGSG-NLuc-AcV5
T1 chain: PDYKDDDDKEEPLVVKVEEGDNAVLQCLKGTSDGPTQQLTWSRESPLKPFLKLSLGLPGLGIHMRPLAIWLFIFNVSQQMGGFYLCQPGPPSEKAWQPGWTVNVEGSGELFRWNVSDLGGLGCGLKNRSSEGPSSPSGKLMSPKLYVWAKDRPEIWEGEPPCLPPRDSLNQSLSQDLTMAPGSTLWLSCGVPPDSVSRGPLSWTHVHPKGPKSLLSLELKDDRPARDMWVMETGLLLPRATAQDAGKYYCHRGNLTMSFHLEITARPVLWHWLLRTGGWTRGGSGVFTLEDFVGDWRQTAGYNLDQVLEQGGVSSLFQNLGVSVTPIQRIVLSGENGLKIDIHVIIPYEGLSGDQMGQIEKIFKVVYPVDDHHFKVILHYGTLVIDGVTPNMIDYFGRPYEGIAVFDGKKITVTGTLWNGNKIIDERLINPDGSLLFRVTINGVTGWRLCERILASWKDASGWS


Legend:
[1] = target: T1, CD19-ECD-GGSG-NLuc-AcV5; test: NLuc binding assay, SIR on Jurkat-NFAT-Luc cells; parental Jurkats 996
[2] = target: T1, CD19-ECD-GGSG-NLuc-AcV5; test: NLuc binding assay, SIR on primary human T cells
[3] = target: T1, CD19-ECD-GGSG-NLuc-AcV5; test: NLuc binding assay, SIR on Jurkat-NFAT-Luc cells; parental Jurkats 1515

| Binder | NLuc value [1] | mean NLuc value [2] | NLuc value [3] |
| --- | --- | --- | --- |
| CD8SP-FMC63-vL-V5-[hTCRb-WT]-F-P2A-SP-FMC63-vH-Myc-[hTCRa-WT]-F-F2A-PAC (080815-F02)[SEQ ID NO:922] (other, SIR with wild-type TCR constant chains; Polyprotein PRT 3157) TCR beta: DIQMTQTTSSLSASLGDRVTISCRASQDISKYLNWYQQKPDGTVKLLIYHTSRLHSGVPSRFSGSGSGTDYSLTISNLEQEDIATYFCQQGNTLPYTFGGGTKLEITGKPIPNPLLGLDSTGSGEDLKNVFPPEVAVFEPSEAEISHTQKATLVCLATGFYPDHVELSWWVNGKEVHSGVSTDPQPLKEQPALNDSRYCLSSRLRVSATFWQNPRNHFRCQVQFYGLSENDEWTQDRAKPVTQIVSAEAWGRADCGFTSESYQQGVLSATILYEILLGKATLYAVLVSALVLMAMVKRKDSRG TCR alpha: EVKLQESGPGLVAPSQSLSVTCTVSGVSLPDYGVSWIRQPPRKGLEWLGVIWGSETTYYNSALKSRLTIIKDNSKSQVFLKMNSLQTDDTAIYYCAKHYYYGGSYAMDYWGQGTSVTVSSEQKLISEEDGSGIQNPDPAVYQLRDSKSSDKSVCLFTDFDSQTNVSQSKDSDVYITDKTVLDMRSMDFKSNSAVAWSNKSDFACANAFNNSIIPEDTFFPSPESSCDVKLVEKSFETDTNLNFQNLSVIGFRILLLKVAGFNLLMTLRLWSS | 3610 | 1190 |  |
| CD8SP-FMC63-vL-V5-[hTCRb-KACIAH]-F-P2A-SP-FMC63-vH-Myc-[hTCRa-CSDVP]-F-F2A-PAC (081415-D06)[SEQ ID NO:992] (other, Polyprotein PRT 3227; also called FMC63-SIR-D06) TCR beta: DIQMTQTTSSLSASLGDRVTISCRASQDISKYLNWYQQKPDGTVKLLIYHTSRLHSGVPSRFSGSGSGTDYSLTISNLEQEDIATYFCQQGNTLPYTFGGGTKLEITGKPIPNPLLGLDSTGSGEDLKNVFPPEVAVFEPSKAEIAHTQKATLVCLATGFYPDHVELSWWVNGKEVHSGVCTDPQPLKEQPALNDSRYCLSSRLRVSATFWQNPRNHFRCQVQFYGLSENDEWTQDRAKPVTQIVSAEAWGRADCGITSASYHQGVLSATILYEILLGKATLYAVLVSALVLMAMVKRKDSRG TCR alpha: EVKLQESGPGLVAPSQSLSVTCTVSGVSLPDYGVSWIRQPPRKGLEWLGVIWGSETTYYNSALKSRLTIIKDNSKSQVFLKMNSLQTDDTAIYYCAKHYYYGGSYAMDYWGQGTSVTVSSEQKLISEEDGSGIQNPDPAVYQLRDSKSSDKSVCLFTDFDSQTNVSQSKDSDVYITDKCVLDMRSMDFKSNSAVAWSNKSDFACANAFNNSIIPEDTFFPSSDVPCDVKLVEKSFETDTNLNFQNLSVIGFRILLLKVAGFNLLMTLRLWSS | 503000 | 107000 |  |
| CD8SP-FMC63-vL-V5-[mTCRb-opt]-F-P2A-SP-FMC63-vH-Myc-[mTCRa-opt]-F-F2A-PAC (080815-B06)[SEQ ID NO:953] (other, Polyprotein PRT 3188) TCR beta: DIQMTQTTSSLSASLGDRVTISCRASQDISKYLNWYQQKPDGTVKLLIYHTSRLHSGVPSRFSGSGSGTDYSLTISNLEQEDIATYFCQQGNTLPYTFGGGTKLEITGKPIPNPLLGLDSTGSGEDLRNVTPPKVSLFEPSKAEIANKQKATLVCLARGFFPDHVELSWWVNGKEVHSGVSTDPQAYKESNYSYCLSSRLRVSATFWHNPRNHFRCQVQFHGLSEEDKWPEGSPKPVTQNISAEAWGRACGITSSYQQGVLSATILYEILLGKATLYAVLVSTLVVMAMVKRKNS TCR alpha: EVKLQESGPGLVAPSQSLSVTCTVSGVSLPDYGVSWIRQPPRKGLEWLGVIWGSETTYYNSALKSRLTIIKDNSKSQVFLKMNSLQTDDTAIYYCAKHYYYGGSYAMDYWGQGTSVTVSSEQKLISEEDGSGIQNPEPAVYQLKDPRSQDSTLCLFTDFDSQINVPKTMESGTFITDKTVLDMKAMDSKSNGAIAWSNQTSFTCQDIFKETNATYPSSDVPCDATLTEKSFETDMNLNFQNLSVMGLRILLLKVAGFNLLMTLRLWSS | 12100 | 5360 |  |
| CD8SP-FMC63-vL-V5-[TCRb-S57C-opt1]-F-P2A-SP-FMC63-vH-Myc-[TCRa-T48C-opt1]-F-F2A-PAC (050515-L05)[SEQ ID NO:900] (other, Polyprotein PRT 3135) TCR beta: DIQMTQTTSSLSASLGDRVTISCRASQDISKYLNWYQQKPDGTVKLLIYHTSRLHSGVPSRFSGSGSGTDYSLTISNLEQEDIATYFCQQGNTLPYTFGGGTKLEITGKPIPNPLLGLDSTGSGEDLKNVFPPEVAVFEPSEAEISHTQKATLVCLATGFYPDHVELSWWVNGKEVHSGVCTDPQPLKEQPALNDSRYCLSSRLRVSATFWQNPRNHFRCQVQFYGLSENDEWTQDRAKPVTQIVSAEAWGRADCGFTSESYQQGVLSATILYEILLGKATLYAVLVSALVLMAMVKRKDSRG TCR alpha: EVKLQESGPGLVAPSQSLSVTCTVSGVSLPDYGVSWIRQPPRKGLEWLGVIWGSETTYYNSALKSRLTIIKDNSKSQVFLKMNSLQTDDTAIYYCAKHYYYGGSYAMDYWGQGTSVTVSSEQKLISEEDGSGPDPAVYQLRDSKSSDKSVCLFTDFDSQTNVSQSKDSDVYITDKCVLDMRSMDFKSNSAVAWSNKSDFACANAFNNSIIPEDTFFPSPESSCDVKLVEKSFETDTNLNFQNLSVIGFRILLLKVAGFNLLMTLRLWSS | 37200 | 19200 |  |
| CD8SP-CD19Bu12-vL-V5-[TCRb-S57C-opt1]-F-P2A-SP-CD19Bu12-vH-Myc-[TCRa-T48C-opt1]-F-F2A-PAC (070215-M03)[SEQ ID NO:1021] (other, Polyprotein PRT 3256) TCR beta: EIVLTQSPATLSLSPGERATLSCSASSSVSYMHWYQQKPGQAPRLLIYDTSKLASGIPARFSGSGSGTDFTLTISSLEPEDVAVYYCFQGSVYPFTFGQGTKLEIKRGKPIPNPLLGLDSTGSGEDLKNVFPPEVAVFEPSEAEISHTQKATLVCLATGFYPDHVELSWWVNGKEVHSGVCTDPQPLKEQPALNDSRYCLSSRLRVSATFWQNPRNHFRCQVQFYGLSENDEWTQDRAKPVTQIVSAEAWGRADCGFTSESYQQGVLSATILYEILLGKATLYAVLVSALVLMAMVKRKDSRG TCR alpha: QVQLQESGPGLVKPSQTLSLTCTVSGGSISTSGMGVGWIRQHPGKGLEWIGHIWWDDDKRYNPALKSRVTISVDTSKNQFSLKLSSVTAADTAVYYCARMELWSYYFDYWGQGTLVTVSSEQKLISEEDGSGPDPAVYQLRDSKSSDKSVCLFTDFDSQTNVSQSKDSDVYITDKCVLDMRSMDFKSNSAVAWSNKSDFACANAFNNSIIPEDTFFPSPESSCDVKLVEKSFETDTNLNFQNLSVIGFRILLLKVAGFNLLMTLRLWSS | 129000 | 39600 |  |
| CD8SP-CD19MM-vL-V5-[TCRb-S57C-opt1]-F-P2A-SP-CD19MM-vH-Myc-[TCRa-T48C-opt1]-F-F2A-PAC (other, Polyprotein PRT 3345; also called 071715-C06) TCR beta: DIQLTQSPASLAVSLGQRATISCKASQSVDYDGDSYLNWYQQIPGQPPKLLIYDASNLVSGIPPRFSGSGSGTDFTLNIHPVEKVDAATYHCQQSTEDPWTFGGGTKLEIKGKPIPNPLLGLDSTGSGEDLKNVFPPEVAVFEPSEAEISHTQKATLVCLATGFYPDHVELSWWVNGKEVHSGVCTDPQPLKEQPALNDSRYCLSSRLRVSATFWQNPRNHFRCQVQFYGLSENDEWTQDRAKPVTQIVSAEAWGRADCGFTSESYQQGVLSATILYEILLGKATLYAVLVSALVLMAMVKRKDSRG TCR alpha: QVQLQQSGAELVRPGSSVKISCKASGYAFSSYWMNWVKQRPGQGLEWIGQIWPGDGDTNYNGKFKGKATLTADESSSTAYMQLSSLASEDSAVYFCARRETTTVGRYYYAMDYWGQGTTVTVSSEQKLISEEDGSGPDPAVYQLRDSKSSDKSVCLFTDFDSQTNVSQSKDSDVYITDKCVLDMRSMDFKSNSAVAWSNKSDFACANAFNNSIIPEDTFFPSPESSCDVKLVEKSFETDTNLNFQNLSVIGFRILLLKVAGFNLLMTLRLWSS | 102000 |  |  |
| CD8SP-V5-[hTCRb-KACIAH]-F-P2A-CD8SP-2-CD19MM-vL-Gly-Ser-Linker-CD19MM-vH-Myc-[hTCRa-CSDVP]-F-F2A-PAC (other, Polyprotein PRT 3858; also called 082815-F06) TCR beta: GKPIPNPLLGLDSTGSGEDLKNVFPPEVAVFEPSKAEIAHTQKATLVCLATGFYPDHVELSWWVNGKEVHSGVCTDPQPLKEQPALNDSRYCLSSRLRVSATFWQNPRNHFRCQVQFYGLSENDEWTQDRAKPVTQIVSAEAWGRADCGITSASYHQGVLSATILYEILLGKATLYAVLVSALVLMAMVKRKDSRG TCR alpha: DIQLTQSPASLAVSLGQRATISCKASQSVDYDGDSYLNWYQQIPGQPPKLLIYDASNLVSGIPPRFSGSGSGTDFTLNIHPVEKVDAATYHCQQSTEDPWTFGGGTKLEIKGGGGSGGGGSGGGGSQVQLQQSGAELVRPGSSVKISCKASGYAFSSYWMNWVKQRPGQGLEWIGQIWPGDGDTNYNGKFKGKATLTADESSSTAYMQLSSLASEDSAVYFCARRETTTVGRYYYAMDYWGQGTTVTVSSEQKLISEEDGSGIQNPDPAVYQLRDSKSSDKSVCLFTDFDSQTNVSQSKDSDVYITDKCVLDMRSMDFKSNSAVAWSNKSDFACANAFNNSIIPEDTFFPSSDVPCDVKLVEKSFETDTNLNFQNLSVIGFRILLLKVAGFNLLMTLRLWSS |  |  | 6360 |
| CD8SP-FMC63-vL-V5-[hTCRb-WT]-F-P2A-SP-FMC63-vH-Myc-[preTCRa-Del48]-F-F2A-PAC (091015-Y08)[SEQ ID NO:926] (other, Polyprotein PRT 3161) TCR beta: DIQMTQTTSSLSASLGDRVTISCRASQDISKYLNWYQQKPDGTVKLLIYHTSRLHSGVPSRFSGSGSGTDYSLTISNLEQEDIATYFCQQGNTLPYTFGGGTKLEITGKPIPNPLLGLDSTGSGEDLKNVFPPEVAVFEPSEAEISHTQKATLVCLATGFYPDHVELSWWVNGKEVHSGVSTDPQPLKEQPALNDSRYCLSSRLRVSATFWQNPRNHFRCQVQFYGLSENDEWTQDRAKPVTQIVSAEAWGRADCGFTSESYQQGVLSATILYEILLGKATLYAVLVSALVLMAMVKRKDSRG EVKLQESGPGLVAPSQSLSVTCTVSGVSLPDYGVSWIRQPPRKGLEWLGVIWGSETTYYNSALKSRLTIIKDNSKSQVFLKMNSLQTDDTAIYYCAKHYYYGGSYAMDYWGQGTSVTVSSEQKLISEEDGSGTPFPSLAPPIMLLVDGKQQMVVVCLVLDVAPPGLDSPIWFSAGNGSALDAFTYGPSPATDGTWTNLAHLSLPSEELASWEPLVCHTGPGAEGHSRSTQPMHLSGEASTARTCPQEPLRGTPGGALWLGVLRLLLFKLLLFDLLLTCSCLCDPAGPLPSPATTTRLRALGSHRLHPATETGGREATSSPRPQPRDRRWGDTPPGRKPGSPV |  |  | 693 |
| CD8SP-FMC63-vL-V5-[hTCRg-opt]-F-P2A-SP-FMC63-vH-Myc-[hTCRd-opt]-F-F2A-PAC (091015-A06)[SEQ ID NO:949] (other, TCR gamma and delta constant chains; Polyprotein PRT 3184) chain 1: DIQMTQTTSSLSASLGDRVTISCRASQDISKYLNWYQQKPDGTVKLLIYHTSRLHSGVPSRFSGSGSGTDYSLTISNLEQEDIATYFCQQGNTLPYTFGGGTKLEITGKPIPNPLLGLDSTGSGDKQLDADVSPKPTIFLPSIAETKLQKAGTYLCLLEKFFPDVIKIHWQEKKSNTILGSQEGNTMKTNDTYMKFSWLTVPEKSLDKEHRCIVRHENNKNGVDQEIIFPPIKTDVITMDPKDNCSKDANDTLLLQLTNTSAYYMYLLLLLKSVVYFAIITCCLLRRTAFCCNGEKS chain 2: EVKLQESGPGLVAPSQSLSVTCTVSGVSLPDYGVSWIRQPPRKGLEWLGVIWGSETTYYNSALKSRLTIIKDNSKSQVFLKMNSLQTDDTAIYYCAKHYYYGGSYAMDYWGQGTSVTVSSEQKLISEEDGSGSQPHTKPSVFVMKNGTNVACLVKEFYPKDIRINLVSSKKITEFDPAIVISPSGKYNAVKLGKYEDSNSVTCSVQHDNKTVHSTDFEVKTDSTDHVKPKETENTKQPSKSCHKPKAIVHTEKVNMMSLTVLGLRMLFAKTVAVNFLLTAKLFFL |  |  | 2180 |
